Laboratory results published in patent publication US20090007283A1, “Transgenic Rodents Selectively Expressing Human B1 Bradykinin Receptor Protein” (priority 2003, published 2009).

Target: T1, human B1 bradykinin receptor (human) (UniProt P46663)
T1 sequence (looked up): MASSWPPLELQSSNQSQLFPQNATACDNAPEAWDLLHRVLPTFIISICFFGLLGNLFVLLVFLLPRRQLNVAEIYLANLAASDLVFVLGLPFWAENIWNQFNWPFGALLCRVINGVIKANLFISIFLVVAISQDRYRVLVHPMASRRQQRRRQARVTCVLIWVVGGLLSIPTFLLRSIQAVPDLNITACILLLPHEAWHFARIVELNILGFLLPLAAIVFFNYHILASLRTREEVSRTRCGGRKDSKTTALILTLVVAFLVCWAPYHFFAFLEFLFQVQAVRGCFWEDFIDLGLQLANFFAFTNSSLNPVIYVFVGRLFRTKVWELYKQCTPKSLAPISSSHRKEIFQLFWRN
Assay: cell-based or functional assay

Substance: des-Arg^10 kallidin (from UniProt P01042 380-388) (peptide)
- EC50 of des-arg^10-kallidin, contraction of homozygous mouse fundus, Control (n = 2), Experiment #1: 19 nM
- EC50 of des-arg^10-kallidin, contraction of homozygous mouse fundus, Control (n = 2), Experiment #2: 8.8 nM
- EC50 of des-arg^10-kallidin, contraction of homozygous mouse fundus, Control (n = 4), combined with Experiment #1: 12 nM
- EC50 of des-arg^10-kallidin, contraction of homozygous mouse fundus, in the presence of 30 nM Compound #1 (small-molecule human B1 antagonist) (n = 2), Experiment #2: 1140 nM
- EC50 of des-arg^10-kallidin, contraction of homozygous mouse fundus, in the presence of 30 nM Compound #1 (small-molecule human B1 antagonist) (n = 4), combined with Experiment #1: 1450 nM
- EC50 of des-arg^10-kallidin, contraction of homozygous mouse fundus, in the presence of 30 nM L-878365 (small-molecule human B1 antagonist) (n = 2), Experiment #1: 2090 nM
- EC50 of des-arg^10-kallidin, contraction of homozygous mouse ileum, Control (n = 2), Experiment #2: 0.83 nM
- EC50 of des-arg^10-kallidin, contraction of homozygous mouse ileum, Control (n = 4), combined with Experiment #1: 1.7 nM
- EC50 of des-arg^10-kallidin, contraction of homozygous mouse ileum, in the presence of 30 nM Compound #1 (small-molecule human B1 antagonist) (n = 2), Experiment #2: 118 nM
- EC50 of des-arg^10-kallidin, contraction of homozygous mouse ileum, in the presence of 30 nM Compound #1 (small-molecule human B1 antagonist) (n = 4), combined with Experiment #1: 5940 nM
- EC50 of des-arg^10-kallidin, contraction of homozygous mouse ileum, in the presence of 30 nM L-878365 (small-molecule human B1 antagonist) (n = 2), Experiment #1: 1080 nM
